A short description of series [1]: Absolute Mn content in heart tissue by ICP-MS. The class given is in vivo, C57Bl/6 mice. The conditions noted are these: control group, MnCl2 alone. As for the experimental part: As previously stated, all mice were anesthetized during the experimental procedures: contrast agent infusion, drug administration, and imaging sessions. The mice were allowed to recover between procedures so as to […] the time each mouse was under anesthesia to 2.5 hours, which was then followed by a recovery period of at least 2.5 hours. This protocol minimized any physiological effects caused by the anesthesia; imaging time points selected for each mouse followed these guidelines. In addition, efforts were made to alter the time interval between successive data points so as not to bias the results with potential anesthesia effects. […] A subgroup of randomly selected animals (n=16) was sacrificed immediately after imaging to measure absolute Mn content in heart tissue (n=14) and blood samples (n=6) by inductively coupled plasma-mass spectrometry (ICP-MS) analysis ([…] Ltd., North Vancouver, BC, Canada). The samples were harvested approximately one hour after the initiation of the final T1-map. This time delay was due to the length of time required to acquire the T1-map, and the time required to harvest the samples, and remained constant for all of the samples. […] No statistically significant differences between the groups were found following linear least-square fitting to the data. […]

The conditions of series [2]: single MnCl2 dose of 190±2 nmoles/g total body weight; cited from earlier work.
Series [3] is described as follows: Heart rate post-MnCl2 infusion. As to conditions: control group, MnCl2 alone.
Series [4] can be described thus: Blood Mn concentration by elemental analysis (ICP-MS). The conditions noted are these: control group, MnCl2 alone; t=5±1.8 hrs post-MnCl2 infusion.
For another series, the target named is NCX (Mus musculus, UniProt P70414). As to the kind of experiment: MEMRI T1-mapping of LV Wall ΔR1 washout (Mn2+ efflux) after MnCl2 infusion, with or without NCX inhibitor. As to conditions: control group.
Where [5] appears, read: MnCl2 alone, fit excluding data for t<1 hour.

The text below walks through data of US8728439B2, “System and method for indirectly measuring calcium ion efflux” (Celtrast LLC, priority 2008, dated 2014).

Several values for one entry are separate records, joined by “and”; a condition that tells them apart may be missing. Equal entries are not always repeated.

On to manganese chloride [MnCl2], for which the “absolute cardiac Mn concentration” value in series [1] (2 hour time point) was 20.9 ± 9.7 µg/g; in series [1] (4 hours post-MnCl2 infusion), “approximately 11.9±0.3 μg/g”. Besides, the cardiotoxic effects result in series [2] is listed as “not to cause cardiotoxic effects”. The “average post-MnCl2 infusion heart rate” value in series [3] is listed as 456±30 bpm. Moreover, in series [4], the “blood Mn concentration” value was found to be 0.19 ± 0.05 mg/mL. The “ΔR1,0” value at NCX (190 nmoles/g BW MnCl2 alone, fit to all data points) is 3.4 ± 0.3 s⁻¹; at NCX (setting [5]) it was 3.5 ± 0.8 s⁻¹. The “LV Wall ΔR1 half-life” value was 3.4 ± 0.6 h and 3.4 h on NCX (190 nmoles/g BW MnCl2 i.v. alone, fit to all data points); 3.2 ± 0.5 h on NCX (setting [5]). Further, the “average LV Wall ΔR1” value at NCX (MnCl2 alone, 4.9-5.9 hours post-MnCl2 infusion) stood at 1.27 ± 0.28 s⁻¹.
